Source: patent publication US11786604B2, “Compounds and compositions for treating HER2 positive tumors” (priority 2014, dated 2023)

Assays:
[1] = tested on: subcutaneous patient derived gastric tumor; assay: Therapeutic efficacy in PDX gastric tumor model; type: in vivo, BALB/c nu/nu nude mice; settings: FIG. 4C; 10 mg/kg intravenously, weekly for a period of 45 days; mice bearing subcutaneous patient derived gastric tumor; versus saline
Method: FIGS. 4A-4C depict therapeutic efficacy of Trastuzumab MC-vc-TLRL and Trastuzumab MC-TLRL in PDX gastric tumor model. BALB/c nu/nu nude mice 6-8 week-old female mice bearing subcutaneous patient derived gastric tumor were treated intravenously with 10 mg/kg of Trastuzumab MC-vc-TLRL, Trastuzumab MC-TLRL, or unconjugated Trastuzumab or saline (12 mice per group). Treatment was performed weekly for a period of 45 days. Therapy was initiated when tumors reached a size on average of 170 mm^3. FIG. 4A: Data represents mean tumor volumes (mean±SD). Tumor growth curves were stopped when tumors reached a size of 2000 mm^3. FIG. 4B: Body weight variations of the mice during and after therapy. […]
Drugs were administered by i.v. route with 5˜20 mg/kg of antibody or reference drug, QWK×3. Tumors were measured once a week by caliper to determine its subcutaneous growth. Tumors were measured twice a week in two dimensions with calipers. Tumor volume was calculated using following formula: tumor volume=(length×width2)×0.5. […]

[2] = Body weight of mice during and after therapy in PDX gastric tumor model; type: in vivo, BALB/c nu/nu nude mice; settings: FIG. 4B; 10 mg/kg intravenously, weekly for a period of 45 days

Row | Substance | Survival curves of treatment and control groups [1] | Body weight variations of the mice during and after therapy [2]
1 | Trastuzumab MC-vc-TLRL | substantial prolongation | No detectable weight loss
2 | Trastuzumab: humanized monoclonal antibody that acts on extracellular domain of Her2 | substantial prolongation | No detectable weight loss
